# Measured values from article PMC4594035, “Xenopus borealis as an alternative source of oocytes for biophysical and pharmacological studies of neuronal ion channels” (Scientific Reports, 2015).
# Like-named read-outs stand apart in the source and are kept apart here.
# How the values were obtained:
# rat ASIC1a [1] = biological target: T1, rat ASIC1a (Rattus norvegicus, UniProt P55926); assay: Inhibition of rat ASIC1a by Pc1a, two-electrode voltage-clamp in Xenopus oocytes; assay type: cell-based; details: n = 9–12; for Slope (Hill coefficient): mean; for IC50: rounded value, Fig. 4e
# T1 construct: expressed in transfected cells; host or cells: Xenopus laevis and Xenopus borealis oocytes (cRNA injection)
# T1 sequence (P55926 1-526): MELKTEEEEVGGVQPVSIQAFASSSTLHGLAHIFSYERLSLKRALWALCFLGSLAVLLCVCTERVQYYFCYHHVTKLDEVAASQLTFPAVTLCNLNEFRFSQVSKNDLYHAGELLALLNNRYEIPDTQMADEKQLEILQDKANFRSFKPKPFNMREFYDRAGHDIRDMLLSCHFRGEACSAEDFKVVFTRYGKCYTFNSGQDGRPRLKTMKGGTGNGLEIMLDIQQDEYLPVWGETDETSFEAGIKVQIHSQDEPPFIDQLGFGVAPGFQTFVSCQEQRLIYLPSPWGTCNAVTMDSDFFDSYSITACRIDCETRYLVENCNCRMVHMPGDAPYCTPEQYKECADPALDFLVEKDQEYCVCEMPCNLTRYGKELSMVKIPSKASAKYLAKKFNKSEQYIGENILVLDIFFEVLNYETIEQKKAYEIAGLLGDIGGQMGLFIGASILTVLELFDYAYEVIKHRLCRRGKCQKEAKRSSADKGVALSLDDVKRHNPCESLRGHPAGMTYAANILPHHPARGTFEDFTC
# Description: X. laevis (Xenopus Express) and X. borealis (Nasco) oocytes were surgically removed from anaesthetised (Tricaine methanesulfonate, MS-222) female frogs and treated with collagenase (1 mg/ml; Sigma type I) for defolliculation. cRNAs were synthesised using an mMessage mMachine cRNA transcription kit (Ambion Inc., Austin, TX, USA) and injected into stage V–VI oocytes at 4–200 ng per cell. Oocytes were stored at 17 °C in ND96 solution (96 mM NaCl, 1.8 mM CaCl2, 2 mM KCl, 2 mM MgCl2, 5 mM HEPES, pH 7.4) supplemented with 2.5 mM pyruvic acid, 50 μg/mL gentamicin, and either 2.5% horse serum or 0.5 mM theophylline. Membrane currents were recorded 2–10 days after injection under voltage-clamp (Axoclamp 900A or Geneclamp 500B, Molecular Devices, CA, USA) using two standard glass microelectrodes of 0.5–2 MΩ resistance when filled with 3 M KCl solution. Data acquisition and analysis were performed using pCLAMP software (Version 9.2 or 10, Molecular Devices, Sunnyvale, CA, USA). All experiments were performed at room temperature (18–21 °C) in ND96 solution. Experiments containing peptides were performed in ND96 solution containing 0.1% fatty acid free-bovine serum albumin (Sigma). Recordings were performed as previously described for ASICs[30][31], GABAAR[32][33], GlyR[34], KV[6][8][35], and NaV[36] channels.
# All data were analysed using Prism 6.0 (GraphPad Software, San Diego, CA, USA). The Hill equation was fitted to normalised concentration-response curves to obtain the half-maximal response (EC50, IC50, or pH50) and Hill coefficient (nH). Voltage-dependent activation curves were fit with the Boltzmann equation to obtain the V0.5 (the voltage corresponding to half-maximal effect). Data are shown as mean and 95% confidence intervals, and n represents the number of oocytes for a given experiment (taken from at least three different frogs). Most equivalence testing comparing X. laevis and X. borealis oocytes was performed using an unpaired Student’s t-test with 95% confidence intervals. […] For both t-tests, it was assumed data was sampled from Gaussian populations, and P values were calculated from two-tailed tests. P < 0.05 was considered statistically significant, unless stated otherwise.
# rat ASIC1a [2] = biological target: T1, rat ASIC1a; details: X. laevis oocytes; read-out: IC50, reported literature value; cited from earlier work
# Text: The two-electrode voltage-clamp method was also applied to a range of ligand-gated ion channels expressed in X. laevis and X. borealis oocytes. The pH-sensitivity of activation and steady-state desensitisation for homomeric acid-sensing ion channels (ASICs) were similar between species for ASIC1a (Fig. 4a), ASIC1b (Fig. 4b), ASIC2a (Fig. 4c), and ASIC3 (Fig. 4d). To assess any differences in the pharmacological properties of ASICs expressed in oocytes from each species, the activity of two known peptide inhibitors of ASICs was tested. π-TRTX-Pc1a (Pc1a, also known as PcTx1) inhibited rat ASIC1 ...
compound,measurement,setting,value
CC[C@H](C)[C@@H]1NC(=O)[C@@H](NC(=O)[C@H](CC(=O)O)NC(=O)[C@@H](N)CCC(=O)O)CSSC[C@@H]2NC(=O)[C@@H]3CSSC[C@@H](C(=O)N[C@H](C(=O)N4CCC[C@H]4C(=O)N[C@@H](CCCCN)C(=O)N[C@H](C(=O)N4CCC[C@H]4C(=O)N[C@@H](CCCCN)C(=O)N[C@H](C(=O)O)[C@@H](C)O)[C@@H](C)O)C(C)C)NC(=O)[C@H](C(C)C)NC(=O)[C@H](CCC(=O)O)NC(=O)[C@H](Cc4ccccc4)NC(=O)[C@H](CO)NC(=O)[C@H](CCCNC(=N)N)NC(=O)[C@H](CCCNC(=N)N)NC(=O)[C@H](CCCNC(=N)N)NC(=O)[C@H](CCCCN)NC(=O)[C@H](Cc4c[nH]c5ccccc45)NC(=O)[C@H](CSSC[C@H](NC(=O)CNC(=O)[C@H](CCCCN)NC(=O)[C@H](Cc4c[nH]c5ccccc45)NC(=O)[C@H](CCCCN)NC(=O)[C@@H]4CCCN4C1=O)C(=O)N[C@@H](C(C)C)C(=O)N[C@@H](CC(N)=O)C(=O)N[C@@H](CCCNC(=N)N)C(=O)N[C@@H](Cc1c[nH]cn1)C(=O)NCC(=O)N[C@@H](CC(=O)O)C(=O)N3)NC(=O)[C@H](CCC(=O)O)NC(=O)[C@H](CC(C)C)NC(=O)CNC(=O)[C@H](CCC(=O)O)NC2=O [Pc1a],Slope (Hill coefficient),rat ASIC1a [1]; X. borealis oocytes,1.60
same,IC50,rat ASIC1a [1]; X. borealis oocytes,1 nM
same,Slope (Hill coefficient),rat ASIC1a [1]; X. laevis oocytes,1.44
same,IC50,rat ASIC1a [1]; X. laevis oocytes,1 nM
same,IC50,rat ASIC1a [2],0.9 nM
